We go through 1 compound from ChEMBL document CHEMBL1130557, “Synthesis and biological evaluation of 14-alkoxymorphinans. 14.1 14-ethoxy-5-methyl substituted indolomorphinans with opioid receptor selectivity” (Bioorg Med Chem Lett, 1997).

Amino acid sequences for entries named in this document (tags omitted).
UniProt P33535, whole entry: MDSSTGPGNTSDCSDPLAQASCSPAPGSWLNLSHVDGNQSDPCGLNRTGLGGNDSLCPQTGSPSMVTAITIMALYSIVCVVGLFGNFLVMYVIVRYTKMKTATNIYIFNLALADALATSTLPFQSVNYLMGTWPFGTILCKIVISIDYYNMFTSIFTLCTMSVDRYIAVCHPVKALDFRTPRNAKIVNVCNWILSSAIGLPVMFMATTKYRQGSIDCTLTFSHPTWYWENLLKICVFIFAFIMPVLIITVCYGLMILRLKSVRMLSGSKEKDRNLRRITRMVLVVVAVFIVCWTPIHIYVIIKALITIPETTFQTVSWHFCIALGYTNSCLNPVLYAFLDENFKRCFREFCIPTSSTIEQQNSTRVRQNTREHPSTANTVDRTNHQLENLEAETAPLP

The test deals with Mu-type opioid receptor (Rattus norvegicus, UniProt P33535). Kind of test: Compound was evaluated for the binding affinity towards mu opioid receptor in rat brain homogenates using [3H]DAMGO as radioligand. In kind it is tissue-based.

As usually defined, the Ki is a dissociation constant, usually derived from enzyme kinetics or from competition with a known ligand. A lower Ki goes with higher affinity. Regarding `Oc1ccc2c3c1O[C@H]1c4[nH]c5ccccc5c4C[C@@]4(O)[C@@H](C2)N(CC2CC2)CC[C@]314` [NALTRINDOLE], affinity was put at a Ki of 30.4 nM.
